In PubChem BioAssay AID504374 (National Center for Advancing Translational Sciences (NCATS), 2011) one finds Potency data, which are given here for 1 compound.

Protein sequences, listed by entry. Tags and fused reporters are not part of them.
UniProt Q01196, whole entry, looked up: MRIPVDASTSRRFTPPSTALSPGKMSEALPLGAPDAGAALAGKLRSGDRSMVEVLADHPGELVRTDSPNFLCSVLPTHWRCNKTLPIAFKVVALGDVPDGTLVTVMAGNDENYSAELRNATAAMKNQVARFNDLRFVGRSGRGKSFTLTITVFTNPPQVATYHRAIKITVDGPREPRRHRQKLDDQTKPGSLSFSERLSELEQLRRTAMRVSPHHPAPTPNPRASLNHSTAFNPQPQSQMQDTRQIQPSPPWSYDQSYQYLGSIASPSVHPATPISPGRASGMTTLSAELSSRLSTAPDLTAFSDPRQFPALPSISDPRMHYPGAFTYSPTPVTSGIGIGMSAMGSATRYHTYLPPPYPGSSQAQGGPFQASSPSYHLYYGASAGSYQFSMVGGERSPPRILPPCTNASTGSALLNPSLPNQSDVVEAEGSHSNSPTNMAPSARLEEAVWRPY
UniProt Q13951, whole entry, looked up: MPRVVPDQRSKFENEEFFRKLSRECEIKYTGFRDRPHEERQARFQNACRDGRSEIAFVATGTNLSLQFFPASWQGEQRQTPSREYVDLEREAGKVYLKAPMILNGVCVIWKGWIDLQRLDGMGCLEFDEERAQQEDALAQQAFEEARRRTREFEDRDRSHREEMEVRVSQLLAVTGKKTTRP

The list shows a part of the results, in another mix than the full data. Inconclusive results are not listed. Active and inactive are the calls of the source. The call rests on the fitted dose curve; in most records, active means well fitted inhibition curve with a large enough effect; inconclusive means small, poorly fitted or top-dose-only effect, or effect the other way; inactive means flat fitted curve, though single readings scatter.
Potency means the concentration at half of the fitted maximal effect.

The target in this assay is Runt-related transcription factor 1 (Homo sapiens) + Core-binding factor subunit beta (Homo sapiens) (UniProt Q01196+Q13951). In words: qHTS Assay for Compounds Blocking the Interaction Between CBF-beta and RUNX1 for the Treatment of Acute Myeloid Leukemia: Hit Validation. Further: nearly all actives have a fitted effect of over 60% in size. Conditions: AlphaScreen CBFb-His/RUNX1-biotin binding. An excerpt:
NIH Chemical Genomics Center [NCGC]
NIH Molecular Libraries Probe Production centers Network [MLPCN]
Assay Submitter (PI): Paul Liu
Core Binding Factor (CBF) abnormalities are associated with 20-25% of all acute myeloid leukemias (AML), of which 5-10% are further sub classified as acute myelomonocytic leukemia with eosinophilia, also known as M4Eo in the FAB classification scheme. This subtype of leukemia is usually associated with chromosome 16 inversion (p13:q22). Chromosome 16 inversion results in formation of the fusion oncogene CBFB-MYH11, which encodes the fusion protein CBF-beta-SMMHC.
It has been hypothesized that the interference of CBF-beta and RUNX1 binding could have therapeutic implications for patients with CBF mediated leukemias. We developed a CBF-beta and RUNX1 binding assay in AlphaScreenTM format and optimized it for high throughput screening to search for inhibitors. The goal of this project is to screen MLPCN's compound collection (MLSMR) for identifying the inhibitors of the interaction between CBF-beta and RUNX1 proteins as research probes. If these probes work well in the animal models, the ultimate goal of this project is to development a new drug treatment for this disease. […]
(6) Detection, Excitation=365 nm Emission=440 nm, Envision reader in AlphaScreenTM mode […]
(qHTS replaces the single test concentration by a dilution series.)
On to `O=C(O)COCCN1CCN(C(c2ccccc2)c2ccc(Cl)cc2)CC1` (stereo unspecified), for which the Potency is active: 0.791 µM.
